Assay results reported in US11673866B2, “Estrogen receptor beta ligands for the prevention and treatment of multiple sclerosis (MS) and other demyelinating, inflammatory and neurodegenerative diseases” (The Board of Trustees of the University of Illinois, priority 2018, dated 2023).
“Also recorded” adds a separate entry of the source.

How the values were obtained:
[1] = Uterus to body weight ratio in EAE mice; format: in vivo, mouse; settings: female EAE mice
Description: Estrogens increase uterine weight by acting primarily through ERα (Hewitt and Korach, 2003).

callosal axons = experiment: Callosal compound action potential (CAP) recordings in brain slices of EAE mice; format: in vivo, mouse; set-up: key: ‘+’ indicate marker was significantly (p ≤ 0.05) increased in treatment group relative to vehicle; ‘−’ indicates marker was significantly (p ≤ 0.05) decreased in treatment group relative to vehicle; ○: ‘o’ indicate marker did not change relative to vehicle; settings: vs vehicle
Description: Electrophysiology: To assess functional conductivity across the CC, electrophysiological recordings of compound action potentials (CAPs) were measured as previously described (Crawford et al., 2009; Crawford et al., 2010). Coronal brain slices were prepared from adult (3 to 4 month old) C57BL/6 female mice. Briefly, mice were deeply anesthetized under isoflurane and decapitated. The brain was removed and submerged in partially frozen “slushy” solution of slicing buffer containing (in mM): 87 NaCl, 75 sucrose 2.5 KCl, 0.5 CaCl2), 7 MgCl2, 1.25 NaH2PO4, 25 NaHCO3, 10 glucose, 1.3 ascorbic acid, 0.1 kynurenic acid, 2.0 pyruvate, and 3.5 MOPS, bubbled with 5% CO2+95% O2 (Lauderdale et al., 2015). Coronal slices (350 μm) were prepared using a Leica VT 1000S Vibratome (Bannockburn, Ill.) and subsequently incubated for 45 minutes at 35° C. in slicing buffer. Following incubation, slices were allowed to cool to room temperature for 15 minutes then transferred to ACSF […] containing (in mM): 125 NaCl, 2.5 KCl, 2.5 CaCl2), 1.3 MgCl2, 1.25 NaH2PO4, 26.0 NaHCO3, and 15 glucose, oxygenated with 5% CO2+95% O2. Slices were equilibrated in the standard ACSF for a minimum of 15-20 minutes prior to electrophysiological recordings. During electrophysiological recordings, slices were continuously perfused with oxygenated ACSF maintained at a flow rate of 1 mL/min. For recording CAPs, an Axon Digidata 1550 was used with a Multiclamp 700B Amplifier and PClamp 10.4 Software (Molecular Devices, Sunnyvale, Calif.). Continuous recordings for CC conduction experiments were low-pass filtered at 10 kHz and digitized at 200 kHz. All experiments were conducted at room temperature (24-26° C.). To stimulate the CC fiber tract, a concentric bipolar stimulating electrode (FHC Neural microTargeting Worldwide, Bowdoin, Me., USA) was placed approximately 1 mm away across from a recoding electrode (glass micropipette filled with ACSF) with a resistance of 1-3 MO. To elicit CAPs, an episodic stimulation protocol was created consisting of 8 consecutive sweeps, each 12 ms long, with a 5-sec delay between sweeps and an immediate stimulus (0.01 ms duration) after the start of each sweep (Crawford et al., 2009a). Stimulus intensity was adjusted manually using an ISO-Flex stimulator (A.M.P.I). […] Electrophysiology data were analyzed using Clampfit 10.4 software (Molecular Devices, Sunnyvale, Calif.) and OriginPro 2016 64 Bit (OriginLab Corporation)
Large white matter tracts, such as the CC, are especially vulnerable to demyelination and axonal damage in MS and EAE (Ozturk et al., 2010; Mangiardi et al., 2011). […] Thus, callosal CAPs were recorded in brain slices obtained from normal, IndCl, pre-E2, IndCl-o-Cl and IndCl-o-Me-treated mice (FIGS. 8A-D). […]

[2] = Post (therapeutic, postEAE) treatment of EAE mice
[3] = Pre (prophylactic, preEAE) E2 treatment of EAE mice

## C[C@]12CC[C@@H]3c4ccc(O)cc4CC[C@H]3[C@@H]1CC[C@@H]2O [E2, 170 estradiol]
[1]; prophylactic E2 (preEAE)
  uterus to body weight ratio: fourfold increase; also recorded: significantly increased
[1]; therapeutic treatment (postEAE)
  uterus to body weight ratio: fourfold increase; also recorded: significantly increased
Callosal axons; [2]
  Electrophysiology: N1 amplitude: ○
  Electrophysiology: N2 amplitude: ○
Callosal axons; [3]
  Electrophysiology: N1 amplitude: ○
  Electrophysiology: N2 amplitude: ○
